Measured values: published antibiotic growth screens (doi:10.1038/s41589-023-01349-8)
Some of the results follow.

The compounds below were run on A. baumannii ATCC 17978 (assay: relative growth (fraction of control); higher = less inhibition). Conditions: 50 µM.

Row | SMILES | relative growth
1 | COc1ccccc1S(=O)(=O)N[C@H]1C=C[C@@H](CC(=O)N2CCN(C)CC2)O[C@H]1CO | 1
2 | C[C@H](O)C#Cc1ccc2c(c1)O[C@H](CN(C)C(=O)Cc1ccccn1)[C@@H](C)CN([C@H](C)CO)S2(=O)=O | 0.882
3 | Cc1cc(Oc2ccnc3cc(Cl)ccc23)ccc1Cl | 0.988
4 | CC1(C)C2CC[C@]3(C)C(C(=O)C=C4[C@@H]5C[C@@](C)(C(=O)[O-])CC[C@]5(C)CC[C@]43C)[C@@]2(C)CC[C@@H]1OC(=O)CCC(=O)[O-].[Na+].[Na+] (some centres undefined) | 0.947
5 | OC[C@H]1NC[C@H](O)[C@@H](O)[C@@H]1O | 1.01
6 | C[C@@H]1CC2C3CCC4=CC(=O)C=C[C@]4(C)[C@@]3(F)[C@@H](O)C[C@]2(C)[C@@]1(O)C(=O)CO (some centres undefined) | 1.13
7 | C[C@@H]1CN([C@@H](C)CO)S(=O)(=O)c2ccc(-c3ccc(C(=O)N(C)C)cc3)cc2O[C@H]1CN(C)C(=O)C1CCC1 | 1.03
8 | CCc1c(C)[nH]c2c(C#N)cnn2c1=O | 1.06
9 | CC(C)NC(=O)N[C@@H]1C=C[C@@H](CC(=O)NCCCN(C)C)O[C@@H]1CO | 1
10 | CCCNC(=O)Cn1c(=O)n(C)c2ccccc21 | 1.09
11 | CC(O)C(=O)[O-].[Na+] (centres undefined) | 0.923
12 | N#Cc1ccc(NCCNC(=N)N)nc1 | 1.01
13 | COc1cc(/C=C/c2cc(O)cc(O[C@@H]3O[C@H](CO)[C@@H](O)[C@H](O)[C@H]3O)c2)ccc1O[C@@H]1O[C@H](CO)[C@@H](O)[C@H](O)[C@H]1O | 1.07
14 | O=S(=O)(N1CCOCC1)N1CCCN(S(=O)(=O)N2CCOCC2)CC1 | 1.02
15 | Cc1ccc(S(=O)(=O)N(C)C[C@H]2Oc3cc(Br)ccc3S(=O)(=O)N([C@H](C)CO)C[C@H]2C)cc1 | 0.925
16 | CCCCCCCCCCCCCCCCCC(=O)O.CC[C@H]1OC(=O)[C@H](C)[C@@H](O[C@H]2C[C@@](C)(OC)[C@@H](O)[C@H](C)O2)[C@H](C)[C@@H](O[C@@H]2O[C@H](C)C[C@H](N(C)C)[C@H]2O)[C@](C)(O)C[C@@H](C)C(=O)[C@H](C)[C@@H](O)[C@]1(C)O | 0.171
17 | COc1ccc([C@H]2[C@@H](C(N)=O)C2(C#N)C#N)cc1 | 1.07
18 | CCCCN(CCCC)CC(O)c1cc(Cl)cc2c1-c1ccc(Cl)cc1/C2=C\c1ccc(Cl)cc1 (centres undefined) | 1.28
19 | COc1ccc(O)cc1 | 1.19
20 | CCO/N=[N+](\[O-])N1CCCC1 | 0.807
21 | CCCCCCCCCCCCCCCCCCCCCCO | 0.97
22 | O=C(N[C@H]1CC[C@H](CCn2cc(C3(O)CCCC3)nn2)O[C@@H]1CO)C1CCOCC1 | 1.03
23 | O=C(Cn1ccc([N+](=O)[O-])n1)N1CCOCC1 | 1.17

Row | SMILES | relative growth
24 | CO[C@@]12[C@@H]3NC3CN1C1=C(C(=O)C(N)=C(C)C1=O)[C@@H]2COC(N)=O (some centres undefined) | 0.171
25 | CC(C)(CO)C(O)C(=O)NCCCO (centres undefined) | 0.89
26 | [N-]=[N+]=Nc1ccccc1[C@H]1OC(c2ccc(OCCCO)cc2)=N[C@@]1(CCS(=O)(=O)c1ccccc1)C(=O)NC[C@@H](O)CO | 0.837
27 | NCCCNCCCCNCCCN | 0.885
28 | COc1ccc(-c2oc3cc(OC)c(OC)c(OC)c3c(=O)c2OC)cc1 | 1.01
29 | O=C(C[C@@H]1CC[C@H](NS(=O)(=O)c2ccccc2)[C@H](CO)O1)NCc1ccncn1 | 1.22
30 | COc1ccc(CCNC(=O)[C@@]2(Cc3ccccc3I)c3ccccc3C(=O)N(Cc3ccccc3)[C@H]2c2ccc(COC(=O)NCCCCCC(=O)NO)cc2)cc1 | 1.06
31 | CN(C)CC(=O)N[C@@H]1CC[C@@H](CCNC(=O)C2CCC2)O[C@H]1CO | 1.02
32 | COc1ccc(S(=O)(=O)N2C[C@H](O)COC[C@@H]3O[C@@H](CC(=O)N[C@@H]4CCN(Cc5ccccc5)C4)CC[C@H]32)cc1 | 0.93
33 | CC1=NN(c2ccccc2)C(=O)C1 | 0.98
34 | O=C(/C=N/O)NCc1ccccn1 | 0.951
35 | Cn1cnc2c1c(=O)[nH]c(=O)n2C | 0.908
36 | CC(C)CCCC(C)NC(C)C.Cl (centres undefined) | 1.05
37 | CO/N=C(/C(=O)NC1C(=O)N2C(C(=O)OC(C)OC(C)=O)=C(COC(N)=O)CSC12)c1ccco1 (centres undefined) | 0.997
38 | CCNC(=O)C[C@H]1C=C[C@H](NC(=O)C2CCOCC2)[C@H](CO)O1 | 1.14
39 | O=C(C[C@H]1CC[C@@H]2[C@H](COC[C@@H](O)CN2C(=O)Nc2ccc(Cl)cc2)O1)NC1Cc2ccccc2C1 | 0.983
40 | Cc1ccc(S(=O)(=O)[N-]Cl)cc1.[Na+] | 0.859
41 | COCC#Cc1ccc2c(c1)O[C@H](CN(C)S(C)(=O)=O)[C@H](C)CN([C@H](C)CO)S2(=O)=O | 1.01
42 | CO[C@H]1/C=C\C=C(/C)C(=O)NC2=CC(=O)C(NCCN(C)C)=C(C[C@@H](C)C[C@H](OC)[C@H](O)[C@@H](C)/C=C(\C)[C@@H]1OC(N)=O)C2=O | 1.13
43 | COCC(=O)Nc1ccc2c(c1)C(=O)N(C)C[C@H](OC)[C@H](C)CN(Cc1cccc(F)c1)[C@@H](C)CO2 | 1.18
44 | NNC(=O)c1nc(-c2ccccc2)no1 | 0.844
45 | C[C@H](CO)N1C[C@H](C)[C@H](CN(C)C(=O)c2cnccn2)Oc2cc(C#CCC3CCCC3)ccc2S1(=O)=O | 0.744
46 | O=C(O)CCNC(=O)c1ccccc1 | 1.03

Row | SMILES | relative growth
47 | COc1ccc(-c2coc3cc(OC)ccc3c2=O)cc1 | 1.07
48 | CCC(=O)OCC(=O)C1(OC(=O)CC)C(C)CC2C3CCC4=CC(=O)C=CC4(C)C3(Cl)C(O)CC21C (centres undefined) | 1.13
49 | NC(=O)c1c(N)c(C(N)=S)n2c1CCC2 | 1.05
50 | C[C@@H]1CN([C@@H](C)CO)C(=O)c2cc(C#CC3(O)CCCC3)cnc2O[C@H]1CN(C)S(=O)(=O)c1ccc(F)cc1 | 0.857
51 | CNC(=O)C[C@H]1CC[C@H]2[C@@H](COC[C@H](O)CN2C(=O)c2ccc3c(c2)OCO3)O1 | 1.09
52 | COc1ccc(S(=O)(=O)N2C[C@@H](O)COC[C@@H]3O[C@H](CC(=O)NCCN4CCCCC4)CC[C@H]32)cc1 | 0.858
53 | COc1cccc(NC(=O)N[C@@H]2CC[C@H](CC(=O)N3CCN(C)CC3)O[C@H]2CO)c1 | 1
54 | C[C@@H](O)CNC(=O)C(=O)NC(C)(C)C | 0.912
55 | CC(C)NC(=N)NC(=N)Nc1ccc(Cl)cc1.Cl | 1.04
56 | COc1cc(O)cc(O)c1C(=O)c1ccccc1 | 0.752
57 | C[C@@H]1CC2C3C[C@H](F)C4=CC(=O)C=C[C@]4(C)[C@@]3(F)[C@@H](O)C[C@]2(C)[C@@]1(O)C(=O)CO (some centres undefined) | 1.01
58 | C=CCOC(=O)[C@H]1[C@@H]2C(=O)O[C@@H](c3ccccc3)[C@@H](c3ccccc3)N2[C@@H](c2ccc(OCCOC(=O)[C@@H]3C[C@@H]4C(=O)N[C@@H](CCCC[N+](C)(C)C)C(=O)N4[C@@H]3c3ccc(O)cc3)cc2)[C@]12C(=O)Nc1ccc(I)cc12 | 1.48
59 | Cl.N=C(N)n1cccn1 | 0.127
60 | CN(CC(=O)Nc1ccc(F)cc1F)S(=O)(=O)c1ccc2c(c1)c(=O)n(C)c(=O)n2C | 0.928
61 | COc1ccc([C@H]([C@H](Cc2ccccc2)OC(C)=O)N(C[C@@H](/C=C/c2ccccc2)CC(=O)N(C)C)[C@@H](Cc2ccccc2)C(OC)OC)cc1 | 1.27
62 | CC[C@@H](O)CNNC(=O)OC(C)(C)C | 1.22
63 | OCC1(CO)COC(COc2ccccc2)=N1 | 0.926
64 | C[C@@H]1CN([C@H](C)CO)S(=O)(=O)c2ccc(C#Cc3ccncc3)cc2O[C@@H]1CN(C)S(=O)(=O)c1ccc(F)cc1 | 0.911
65 | N[C@@H](CO)C(=O)O | 1.05
66 | Nc1ncnc2[nH]cnc12 | 0.932
67 | NNC(=O)[C@H]1CCCNC1=O | 0.813
68 | COc1ccc(S(=O)(=O)N[C@H]2CC[C@@H](CC(=O)N3CCC(Cc4ccccc4)CC3)O[C@H]2CO)cc1 | 0.846
69 | COCC#Cc1ccc2c(c1)O[C@H](CN(C)Cc1ccccc1F)[C@H](C)CN([C@@H](C)CO)S2(=O)=O | 0.638

Row | SMILES | relative growth
70 | C[C@H]1CCc2c(C(=O)O)csc2C1 | 0.851
71 | O=C(C[C@H]1CC[C@@H]2[C@H](COC[C@@H](O)CN2S(=O)(=O)c2cccc(Cl)c2)O1)N1CCOCC1 | 1.04
72 | C[C@H]1CN([C@@H](C)CO)S(=O)(=O)c2ccc(-c3ccncc3)cc2O[C@@H]1CN(C)C(=O)c1cccc(F)c1 | 0.911
73 | O=C(N[C@H]1C=C[C@@H](CC(=O)N2CCOCC2)O[C@@H]1CO)c1ccccn1 | 0.813
74 | Cc1nn(CC(=O)O)c(=O)c2cccn12 | 1.11
75 | CCN(CC)S(=O)(=O)c1nnc[nH]1 | 0.954
76 | Cl.Clc1ccc2nsnc2c1NC1=NCCN1 | 1.29
77 | COc1cc(N2CCC(N(C)C)CC2)ccc1Nc1ncc(Cl)c(Nc2ccccc2P(C)(C)=O)n1 | 0.999
78 | OCc1cn(-c2ccccc2)nn1 | 1.02
79 | CCc1c(O)nc2ccccn2c1=O | 0.897
80 | C#CCn1c(=O)c2c(OC)ccnc2n(C)c1=O | 1.14
81 | CN([NH2+][O-])C(=O)N[C@@H]1[C@@H](O)[C@H](O)[C@@H](CO)O[C@@H]1O | 1.01
82 | COc1ccc(S(=O)(=O)N2C[C@H](O)COC[C@H]3O[C@H](CC(=O)N[C@@H]4CCN(Cc5ccccc5)C4)CC[C@@H]32)cc1 | 0.925
83 | COc1ccc(-c2cn(CCNC(=O)[C@H](Cc3ccccc3)NS(=O)(=O)c3ccc(C)cc3)nn2)cc1OC | 1.01
84 | CC1=CC(=O)C(C(C)C)=CC1=O | 0.898
85 | O=C(CN1CCOCC1)N[C@H]1CC[C@@H](CCNS(=O)(=O)c2ccccc2F)O[C@H]1CO | 1.1
86 | O=C(O)c1cn(C2CC2)c2cc(N3CCNCC3)c(F)cc2c1=O | 0.17
87 | C[C@@H]1CN([C@H](C)CO)S(=O)(=O)c2ccc(C#CC3CC3)cc2O[C@@H]1CN(C)C(=O)C1CCCCC1 | 0.857
88 | COC(=O)Nc1nc2ccc(Sc3ccccc3)cc2[nH]1 | 1.38
89 | COc1ccc(-c2nc(-c3ccc(C)cc3C)cs2)cc1 | 0.985
